{
  "source": "patent US20220023323A1",
  "about": "“RESETTING BIOLOGICAL PATHWAYS FOR DEFENDING AGAINST AND REPAIRING DETERIORATION FROM HUMAN AGING” (priority 2015, published 2022)",
  "origin": "cited, not measured here",
  "settings": "in vivo; cited from earlier work",
  "data": [
    {"smiles": "CN(C)C(=N)N=C(N)N", "note": "[metformin]", "values": [
      {"measurement": "time to steady state", "result": "one to two"}
    ]}
  ]
}
